Measured affinities in a library of Ab-91 heavy chain variants

Values reported by Engelhart et al. 2022, doi:10.1038/s41597-022-01779-4 (FLAb copy).

Antigen: PDVDLGDISGINAS, a 14-residue peptide of the SARS-CoV-2 spike HR2 region.

Each scFv is VL, the linker GGGGSGGGGSGGGGS, VH, as in the parent Ab-91, and differs from it in the CDRs of the heavy chain only.
VL: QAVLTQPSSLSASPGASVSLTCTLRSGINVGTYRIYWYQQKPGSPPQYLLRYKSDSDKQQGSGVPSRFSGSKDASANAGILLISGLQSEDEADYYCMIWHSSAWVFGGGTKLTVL
VH: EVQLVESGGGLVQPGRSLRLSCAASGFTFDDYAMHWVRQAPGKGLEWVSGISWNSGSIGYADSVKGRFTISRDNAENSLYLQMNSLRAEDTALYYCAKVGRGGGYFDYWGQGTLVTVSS

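The parent was found by panning a naive human phage display library on the peptide. In library AAYL51, one, two or three CDR residues were substituted; doubles and triples were drawn at random. Affinity was read by AlphaSeq, a pooled yeast mating assay with surface-displayed partners. Mating (16 h, 30 °C) was followed by selection of diploids and sequencing of their barcodes. Each replicate has its own calibration line, from reference interactions of the BCL2 family. There are three technical replicates.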

Positions count from residue 1 of the parent VH; F27D puts D in place of F. The read-out is the apparent dissociation constant on a log10 scale (nM): the lower, the stronger. "nd" marks a missing value. The strain was present, yet no cells mated with the target were sequenced in that replicate, which points to weak or no binding.

| changes | replicates, log10 nM | control signals |
|---|---|---|
| F27D/F106L | 3.98 / 4.22 / nd | 3/9 (4.45) |
| T28K/G100D | 4.48 / 4.53 / nd | 6/9 (4.78) |
| G59Y/V64L/F106V | nd / nd / nd | 0/9 |
| I51W/G104T/Y105R | 4.98 / nd / nd | 0/9 |
| W53S/S55L/D62K | 4.23 / 4.96 / nd | 5/9 (5.17) |
| D30G/A33D | 4.68 / 4.89 / 4.30 | 6/9 (4.45) |
| H35Y/A61H/Y108D | nd / nd / nd | 1/9 (3.97) |
| G26T/T28K/N54R | 4.19 / nd / 6.42 | 8/9 (5.30) |
| I51K/G102Y/G104F | nd / 4.07 / nd | 0/9 |
| G50F/G56F/Y105V | nd / nd / nd | 0/9 |
| F29W/D31H/G59D | nd / nd / nd | 1/9 (5.10) |
| D30R/S63T | 1.68 / 1.91 / 1.79 | 1/9 (4.56) |
| T28A/S52F/W53D | 5.35 / nd / nd | 1/9 (5.02) |
| F27E/W53Y/G103Y | 4.01 / nd / 4.50 | 2/9 (3.88) |
| S57K/G59S/Y60K | nd / nd / nd | 1/9 (4.67) |
| F27L/Y60H/G100N | nd / nd / nd | 1/9 (4.00) |
| G50K/R101H/Y105T | 4.10 / nd / nd | 0/9 |
| S57Y/F106R/D107W | nd / nd / nd | 2/9 (4.37) |
| D31G/Y105R/F106S | nd / nd / nd | 2/9 (3.58) |
| Y32F/G100E/G102L | 4.78 / 4.51 / nd | 1/9 (4.16) |
| G56F/S57M/G102Y | nd / nd / nd | 1/9 (4.00) |
| G59F/Y60T/G103C | nd / 4.03 / nd | 2/9 (4.53) |
| D30P/I58A/G59P | 4.49 / 4.09 / nd | 3/9 (5.07) |
| A33N/S57M/G59V | nd / nd / nd | 0/9 |
| G59P/K65F/G100M | 3.60 / nd / 4.82 | 6/9 (4.82) |
| S55W/A61G/K65M | nd / nd / nd | 2/9 (4.00) |
| W53D/V99P/G100W | 3.93 / nd / nd | 0/9 |
| T28G | 4.85 / 5.57 / nd | 1/9 (5.41) |
| D30F/H35G/Y105Q | nd / nd / nd | 1/9 (5.13) |
| G56W/V99N | nd / 5.44 / 5.80 | 4/9 (4.52) |
| G26M/Y60W | nd / nd / nd | 1/9 (4.82) |
| D30Y/G56H/G104F | 5.07 / nd / nd | 2/9 (4.21) |
| T28R/A33R/S57P | 3.62 / 4.97 / nd | 2/9 (3.96) |
| D30A/D31Q/Y32A | 1.35 / 1.30 / 0.77 | 8/9 (5.09) |
| D31N/N54L/V64Y | 4.17 / 4.66 / nd | 4/9 (4.73) |
| M34F/S55M/S57M | 3.67 / nd / nd | 1/9 (4.01) |
| F27K/A61L | nd / 4.71 / nd | 0/9 |
| G50S/S52Y/N54E | 4.78 / nd / 5.32 | 2/9 (4.92) |
| I51V/S55T/S63T | 2.99 / nd / nd | 0/9 |

Repeated from above, the 3 best binders with a signal in all replicates:

{"changes": "D30A/D31Q/Y32A", "replicates, log10 nM": "1.35 / 1.30 / 0.77", "control signals": "8/9 (5.09)"}
{"changes": "D30R/S63T", "replicates, log10 nM": "1.68 / 1.91 / 1.79", "control signals": "1/9 (4.56)"}
{"changes": "D30G/A33D", "replicates, log10 nM": "4.68 / 4.89 / 4.30", "control signals": "6/9 (4.45)"}

Three control strains display no target. For library AAYL51, 21% of the pairings with them gave a signal, with a median of 4.54 and one signal in twenty below 3.26, so weak values seen in few replicates may be background. The control count says in how many pairings with the empty strains this scFv gave a signal, with their mean in brackets. For reference, the parent read 1.86 as the reference entry and 0.88 as a member of this library.